This data set is classed as physicochemical. As to the method:
Di-μ-cystamine tetranitrosyl di-iron sulphate (Fe2S3N6C4H19O10.5) (I) was prepared by reacting iron sulphate (II) with cystamine hydrochloride solution. Distilled water used in the synthesis required preliminary preparation to remove oxygen dissolved therein. To this end, a flow of inert gas (argon or nitrogen) was passed through a flask with distilled water for 30 minutes. 0.84 grams (3 mmol) iron sulphate heptahydrate were dissolved in 12 ml prepared distilled water. To this solution, 0.40 g (3.5 mmol) cystamine hydrochloride dissolved in 8 ml water was added to this solution. Nitrogen monoxide flow prepared according to the technique [Yu. V. Karyakin and I. I. Angeov. Chistiye khimicheskiye veshchestva (Pure chemical substances), Moscow: Khimiya publishing house, 1974, 23] was passed through the prepared solution for 1 to 1.5 hours at ˜40° C. until crystals were formed in the solution. Reaction mixture was then allowed to stand at 6 to 8° C. for 15 to 20 hrs; a formed brown-red fine crystalline precipitate was filtered off and dried in air for 24 hours. Yield was […] (16.5%).

Regarding “Di-μ-cystamine tetranitrosyl di-iron sulphate [complex I]”, the “solubility in DMSO” value is recorded as “readily soluble”, the solubility in methanol entry was “less soluble”, the “solubility in other organic solvents” value is reported as “insoluble” and the solubility in water result is recorded as “readily soluble”.

The values above are taken from patent US8067628B2, “Water-soluble binuclear nitrosyl iron complexes with natural aliphatic thiolyls possessing cytotoxic, apoptotic and no-donor activity” (priority 2008, dated 2011).
